AlphaSeq binding of Ab-14 heavy chain variants to a spike HR2 peptide

From the AlphaSeq antibody data of Li et al. 2023 (doi:10.1038/s41467-023-39022-2), copy in the FLAb collection.

Binding partner: SARS-CoV-2 spike HR2 peptide, sequence PDVDLGDISGINAS.

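The starting antibody came from a phage panning campaign against this peptide. These sequences belong to a second round, designed from the earlier measurements on random variants of the parent. Their group label is 14H_En_Gen (En: ensemble of fine-tuned language models; Gen: genetic algorithm). The scFvs were displayed on barcoded MATa yeast, the peptide on MATalpha yeast. After mating in shaken culture at 30 °C for 16 h, diploids were selected and their barcode pairs sequenced. Scores were corrected for input abundance and mapped to Kd with protein pairs of known affinity run in the same pool. The assay was run in six technical replicates.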

Parent: Ab-14, a human scFv built as VH, a (GGGGS)3 linker, VL. Only the CDRs of the heavy chain vary.
VH: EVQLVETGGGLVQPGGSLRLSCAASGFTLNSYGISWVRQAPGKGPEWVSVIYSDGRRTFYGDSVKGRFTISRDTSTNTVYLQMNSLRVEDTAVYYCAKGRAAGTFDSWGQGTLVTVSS
VL: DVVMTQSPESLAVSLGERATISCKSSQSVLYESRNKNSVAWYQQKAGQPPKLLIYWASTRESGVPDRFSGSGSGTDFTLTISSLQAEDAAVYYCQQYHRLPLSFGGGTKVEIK

Each variant is given by its three heavy chain CDRs, as the data file delimits them; those of the parent are GFTLNSYGIS, VIYSDGRRTFYGDSVK, GRAAGTFDS.
Affinities are written as log10 Kd with Kd in nM; a lower number is a better binder.
A mean of the replicates is given; it leaves out those without a signal.
A pair that was not seen in that replicate is written "nd"; this usually means weak binding, but a binder can also be missed.
The parent sequence was in this pool as ten entries: three were never detected, three once, and four in most replicates, with averages from 0.34 to 2.37.
The authors' rule: three or more of the six replicates give a measured affinity, fewer mean a poor binder.
A sequence measured in both rounds can read differently, since the two assays cover different ranges.
As a blank, each scFv also met three strains without target: over all heavy chain designs, 1% of these pairings were detected, typically at 2.08 and seldom below 0.84. For each scFv, signals with the empty controls are counted beside the result.

GFDLNEYGIS, VIYADGSRTAYADSVK, GENAGTFDQ: -0.23, -0.75, -0.46, -0.85, -0.23, -0.26 (mean -0.46; controls 0 of 18).
GFDLNEYGIS, VIYADGSRTAYADDVK, GEVAGTFDI: 0.04, -0.34, -0.18, -0.52, 0.09, -0.08 (mean -0.17; controls 0 of 18).
GFDLEDYGIS, VIYADGRRTAYSDSVK, GEVAGTFDV: 0.10, -0.14, -0.25, -0.30, -0.16, -0.11 (mean -0.14; controls 0 of 18).
GFDLNEYGIS, VIYADGMRTSYADSVK, GENAGTFDM: 0.41, 0.05, 0.12, 0.11, -0.03, 0.15 (mean 0.13; controls 0 of 18).
GFDLNEYGIS, VIYADGMRTAYADSVK, GQNAGTFDQ: -0.36, 0.25, -0.55, -0.46, -0.75, -0.32 (mean -0.37; controls 0 of 18).
GFDLNEYGIS, VIYADGKRTAYSDSVK, GNNAGTFDM: nd, -1.60, -0.83, -1.83, -1.24, -0.86 (mean -1.27; controls 1 of 18).
GFDLDEYGIS, VIYADGQRTAYTDSVK, GENAGTFDV: -1.04, -1.05, -1.07, -0.63, -1.19, -0.52 (mean -0.92; controls 0 of 18).
GFDLDEYGIS, VIYADGMRTAYQDSVK, GNVAGTFDV: -0.53, -0.51, -0.73, -0.63, -0.29, -0.45 (mean -0.52; controls 0 of 18).
GFDLNEYGIS, VIYADGRRKAYADDVK, GNNAGTFDV: -0.26, -0.38, -0.30, -0.62, -0.32, -0.11 (mean -0.33; controls 0 of 18).
GFDLDEYGIS, VIYADGMRTAYADDVK, GGNAGTFDL: -0.19, -0.09, -0.18, -0.48, -0.32, 0.18 (mean -0.18; controls 0 of 18).
GFDLDEYGIS, VIYADGKRTAYADSVK, GNEAGTFDV: -0.37, 0.06, -0.07, -0.42, -0.58, -0.26 (mean -0.27; controls 1 of 18).
GFDLNEYGIS, VIYADGQRTAYADKVK, GNTAGTFDV: -0.13, -0.30, -0.46, -0.41, -0.23, -0.25 (mean -0.29; controls 0 of 18).
GFDLNEYGIS, VIYADGMRTQYADSVK, GQNAGTFDI: 0.84, 0.30, -0.21, 0.41, 0.33, 0.28 (mean 0.33; controls 0 of 18).
GFDLDEYGIS, VIYADGMRTAYSDSVK, GETAGTFDQ: -0.28, -0.48, -0.77, -0.76, -0.46, -0.50 (mean -0.54; controls 1 of 18).
GFDLNEYGIS, VIYADGLRTAYSDSVK, GNVAGTFDT: -0.02, -0.09, -0.15, -0.62, -0.27, -0.38 (mean -0.25; controls 0 of 18).
GFDLDEYGIS, VIYADGRRTAYADSVK, GNNAGTFDT: 0.02, -0.55, 0.00, -0.34, -0.11, -0.32 (mean -0.22; controls 0 of 18).
GFDLNEYGIS, VIYADGRRTAYVDSVK, GTNAGTFDV: -0.62, -0.34, -0.87, -0.72, -0.33, -0.42 (mean -0.55; controls 0 of 18).
GFDLDEYGIS, VIYADGKRTAYIDSVK, GNVAGTFDI: -0.35, -0.43, -0.92, -0.27, -0.55, 0.24 (mean -0.38; controls 0 of 18).
GFDLDEYGIS, VIYADGKRTAYADSVK, GNNAGTFDV: -0.24, -0.63, -0.64, -0.67, -0.08, -0.08 (mean -0.39; controls 0 of 18).
GFDLNEYGIS, VIYADGSRTAYADSVK, GNVAGTFDL: -0.05, -0.23, -0.36, -0.30, -0.26, -0.40 (mean -0.27; controls 0 of 18).
GFDLNEYGIS, VIYADGKRTAYSDSVK, GTNAGTFDL: -0.06, -0.04, -0.19, -0.36, -0.23, -0.06 (mean -0.16; controls 0 of 18).
GFDLDEYGIS, VIYADGMRTVYADSVK, GGNAGTFDV: nd, 0.01, 1.85, -0.04, 0.97, 0.19 (mean 0.60; controls 0 of 18).
GFDLNEYGIS, VIYADGVRTAYSDSVK, GNTAGTFDV: -0.04, 0.17, -0.32, -0.72, -0.59, 0.06 (mean -0.24; controls 0 of 18).
GFDLDEYGIS, VIYADGMRTAYADKVK, GNTAGTFDV: 0.02, 0.23, 0.08, -0.07, -0.06, 0.23 (mean 0.07; controls 0 of 18).
GFDLNEYGIS, VIYADGRRTSYADSVK, GNVAGTFDV: -0.20, -0.34, -0.10, -0.50, -0.12, -0.32 (mean -0.26; controls 0 of 18).
GFDLNEYGIS, VIYADGVRTAYTDSVK, GNNAGTFDL: 0.01, -0.17, 0.09, 0.03, -0.29, 0.17 (mean -0.03; controls 0 of 18).
GFDLNEYGIS, VIYADGMRTAYADDVK, GNEAGTFDI: -0.62, 0.61, -0.37, -0.42, -0.90, -0.17 (mean -0.31; controls 0 of 18).
GFDLNEYGIS, VIYADGKRTAYADDVK, GEVAGTFDI: -0.37, -0.70, -1.01, -0.69, -0.15, -0.54 (mean -0.58; controls 0 of 18).
GFDLDEYGIS, VIYADGVRTAYADSVK, GTNAGTFDL: -0.43, -0.24, -0.40, -0.88, -0.85, -0.44 (mean -0.54; controls 0 of 18).
GFDLNEYGIS, VIYADGKRTAYSDSVK, GTNAGTFDQ: 0.04, -0.01, 0.05, -0.02, -0.42, 0.17 (mean -0.03; controls 0 of 18).
GFDLNEYGIS, VIYADGMRTAYADDVK, GNEAGTFDT: 0.02, -0.16, -0.03, -0.53, -0.24, -0.33 (mean -0.21; controls 0 of 18).
GFDLEDYGIS, VIYADGMRTAYADSVK, GQNAGTFDV: 0.32, 0.17, -0.30, -0.52, 0.66, 0.29 (mean 0.10; controls 0 of 18).
GFDLDEYGIS, VIYADGMRTYYADDVK, GNVAGTFDL: -0.31, -0.51, -0.38, -0.53, -0.54, -0.41 (mean -0.45; controls 0 of 18).
GFDLDEYGIS, VIYADGMRTAYADSVK, GNQAGTFDQ: nd, nd, 1.18, nd, nd, 1.78 (mean 1.48; controls 0 of 18).
GFDLNEYGIS, VIYADGMRTAYADNVK, GANAGTFDV: -0.43, -0.69, -0.48, -0.64, -0.63, -0.59 (mean -0.57; controls 0 of 18).
GFDLNEYGIS, VIYADGKRTAYIDSVK, GENAGTFDM: -0.73, -0.56, -0.78, -0.71, -1.04, -0.69 (mean -0.75; controls 0 of 18).
GFDLDEYGIS, VIYADGSRTAYADSVK, GNNAGTFDI: 1.40, 0.11, 0.21, -0.42, 0.45, -0.07 (mean 0.28; controls 1 of 18).
GFDLNEYGIS, VIYADGRRTAYSDSVK, GEVAGTFDM: 0.03, 0.13, 0.09, -0.23, -0.22, -0.24 (mean -0.08; controls 0 of 18).
GFDLNEYGIS, VIYADGKRTAYADSVK, GNNAGTFDI: -0.39, 0.73, nd, -0.63, nd, nd (mean -0.10; controls 0 of 18).
GFDLNEYGIS, VIYADGQRTAYADSVK, GNVAGTFDQ: -0.46, -0.65, -0.55, -0.69, -0.70, -0.36 (mean -0.57; controls 0 of 18).
GFDLNEYGIS, VIYADGRRTAYTDSVK, GENAGTFDV: -0.07, nd, 0.50, -0.01, -0.76, 0.04 (mean -0.06; controls 0 of 18).
GFDLDEYGIS, VIYADGRRTAYADSVK, GANAGTFDV: -0.20, -0.30, -0.24, -0.14, -0.49, 0.53 (mean -0.14; controls 0 of 18).
GFDLNEYGIS, VIYADGMRTSYADDVK, GNVAGTFDM: -0.01, 1.09, 0.14, -0.19, -0.32, 0.22 (mean 0.16; controls 0 of 18).

Excerpt, the first 6 entries:

| CDR-H1 | CDR-H2 | CDR-H3 | log10 Kd (nM) by replicate | mean, log10 nM | control signals |
|---|---|---|---|---|---|
| GFDLNEYGIS | VIYADGSRTAYADSVK | GENAGTFDQ | -0.23, -0.75, -0.46, -0.85, -0.23, -0.26 | -0.46 | 0 of 18 |
| GFDLNEYGIS | VIYADGSRTAYADDVK | GEVAGTFDI | 0.04, -0.34, -0.18, -0.52, 0.09, -0.08 | -0.17 | 0 of 18 |
| GFDLEDYGIS | VIYADGRRTAYSDSVK | GEVAGTFDV | 0.10, -0.14, -0.25, -0.30, -0.16, -0.11 | -0.14 | 0 of 18 |
| GFDLNEYGIS | VIYADGMRTSYADSVK | GENAGTFDM | 0.41, 0.05, 0.12, 0.11, -0.03, 0.15 | 0.13 | 0 of 18 |
| GFDLNEYGIS | VIYADGMRTAYADSVK | GQNAGTFDQ | -0.36, 0.25, -0.55, -0.46, -0.75, -0.32 | -0.37 | 0 of 18 |
| GFDLNEYGIS | VIYADGKRTAYSDSVK | GNNAGTFDM | nd, -1.60, -0.83, -1.83, -1.24, -0.86 | -1.27 | 1 of 18 |